Drawing on ChEMBL document CHEMBL5543150, “Design, Synthesis, and Pharmacological Evaluation of Spiro[carbazole-3,3'-pyrrolidine] Derivatives as cGAS Inhibitors for Treatment of Acute Lung Injury” (J Med Chem, 2024), this text covers inhibition for 6 compounds.

By UniProt entry, the sequences of proteins in these tests, tags left out.
UniProt Q8C6L5, whole entry: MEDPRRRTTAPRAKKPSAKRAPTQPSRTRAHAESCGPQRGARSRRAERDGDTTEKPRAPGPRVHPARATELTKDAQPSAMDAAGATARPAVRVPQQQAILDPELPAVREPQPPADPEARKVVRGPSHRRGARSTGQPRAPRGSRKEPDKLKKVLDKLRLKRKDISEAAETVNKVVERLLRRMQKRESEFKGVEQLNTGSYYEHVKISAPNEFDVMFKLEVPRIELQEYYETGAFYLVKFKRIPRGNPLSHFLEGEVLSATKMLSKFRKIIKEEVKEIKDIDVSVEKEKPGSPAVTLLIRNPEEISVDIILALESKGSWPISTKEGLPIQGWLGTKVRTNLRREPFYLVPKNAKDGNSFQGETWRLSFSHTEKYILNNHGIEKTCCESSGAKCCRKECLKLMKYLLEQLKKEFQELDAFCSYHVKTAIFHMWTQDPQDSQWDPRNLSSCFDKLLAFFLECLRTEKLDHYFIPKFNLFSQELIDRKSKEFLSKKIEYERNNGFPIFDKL

Assay [1] concerns the target Cyclic GMP-AMP synthase (Mus musculus) (UniProt Q8C6L5). As to the kind of experiment: Inhibition of cGAS in mouse RAW-Lucia ISG cells at 10 uM preincubated for 1 hr followed by cGAMP addition and measured after 24 hrs by luminescence based QUANTI-Luc assay relative to control. The settings on record: time 25.0 hrs. In kind it is cell-based.
Assay [2] shares this target. As to the kind of experiment: Inhibition of cGAS activation in ds-DNA activated mouse RAW-Lucia ISG cells. It counts as cell-based. Conditions: dose 0.5-50 µM.

Regarding `O=C(CO)N1CCC2(CCc3[nH]c4c(Cl)c(Cl)cc(-c5cnn(C(F)F)c5)c4c3C2)C1` (stereo unspecified), the inhibition in assay [1] was determined as 45%.

For `Cn1ccc(-c2cc(Cl)c(Cl)c3[nH]c4c(c23)CC2(CC4)CCN(C(=O)CO)C2)n1` (stereo unspecified), in assay [1], the inhibition amounted to 45%.

Consider `Cn1ccc(-c2cc(Cl)c(Cl)c3[nH]c4c(c23)CN(C(=O)CO)CC4)n1`, for which the inhibition in assay [1] was -5%.

Consider `Nc1cc(-c2cc(Cl)c(Cl)c3[nH]c4c(c23)CC2(CC4)CCN(C(=O)CO)C2)ccn1` (stereo unspecified), for which the inhibition in assay [1] was determined as 60%.

Consider `O=C(CO)N1CC[C@@]2(CCc3[nH]c4c(Cl)c(Cl)cc(-c5ccn(C(F)F)n5)c4c3C2)C1`, for which, in assay [2], the inhibition entry is “Dose-Dependent Effect”.

`O=C(CO)N1CCC2(CCc3[nH]c4c(Cl)c(Cl)cc(-c5ccn(C(F)F)n5)c4c3C2)C1` (racemic): the inhibition in assay [1] was 39%.

Broadly, the inhibition is the relative decrease from the control value, in per cent.
